Only some compounds are listed: those with a hit (about 4.2% of all), similar ones and a draw of the others.
MC4R antagonist – blocks human MC4R cAMP signaling | MC4R-expressing cells, MTII-stimulated cAMP, LANCE TR-FRET | inhibition, % at 6.5 µM | 360,000 tested, 0.48% active;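 active means inhibition above its plate's cutoff, the mean of tested wells on that plate plus 3 SD, cut at about 29% in these data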;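 further: 0% = Melanotan II alone and 100% = Melanotan II plus saturating MCL0020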
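System: U2OS cells stably expressing human melanocortin 4 receptor (MC4R). Reagent: Melanotan II challenge after compound preincubation. Doses: 6.5 µM. Times: 30-min compound, 1-h challenge, 1-h detection, room temperature. Measured by: TR-FRET with Eu-cAMP and labeled anti-cAMP, 671 nm. Replicates: singlicate.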
MC4R barr agon – agonists of human melanocortin 4 receptor (MC4R) beta-arrestin; 360,000 tested, 0.98% active; AID 540308; activation, % at 8.9 µM; P32245; U2OS MC4R beta-arrestin complementation, luminescence; percent of melanotan II response, DMSO zero;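 active means activation above a per-plate cutoff, the mean activation of sample wells on that plate plus 3 SD, cut at about 8% in these data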
HDAC3 inhib – blocks human histone deacetylase 3 | O15379 | recombinant HDAC3, fluorogenic peptide/trypsin coupled, fluorescence | inhibition, % at 8.3 µM | 320,000 tested, 0.15% active | AID 2718; in the data active means inhibition above about 26%, passing the limit was not always enough
UUG fidelity – alters start codon recognition fidelity in yeast; S. cerevisiae UUG-firefly luciferase reporter, luminescence/redox ratio; activity score, % at 18.7 µM; actives 0.13% (n = 350,000); AID 602363;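 active = replicate mean at a twofold rise or more, about +100% in these data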;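 also: firefly luciferase made from a UUG start codon reports start codon fidelity; reporter light over untreated wells divided by growth signal over untreated wells; some hits fall short of that in this replicate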
ALR H2O2 inh – inhibitors of human ALR sulfhydryl oxidase, primary screen, biochemical, H2O2 detection, HRP-luminol luminescence, single point. 290,000 compounds, 3.8% hits. inhibition, % (concentration not given with the values). purified ALR, DTT oxidation. AID 485317, 2010;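 active means mean and each replicate at 75% or more; inconclusive means only one of the two met; inactive means neither met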;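 further: stock transfer was 7.5 nL into about 7.5 µL; 0% = neutral wells and 100% = wells with inactivated enzyme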
NALP1 inh – NALP1 inhibition. 280,000 tested, 0.61% active. AID 2071. inhibition, % at 10 µM. S. cerevisiae NALP1/ASC/caspase-1 growth, X-gal OD620, 72 h; in the data active means inhibition mostly above about 24%, no sharp cut-off; inactive means mostly below about 32%
An asterisk follows results filed as active.

Results for COc1cc([C@H]2OC[C@H]3[C@@H]2CO[C@H]3c2ccc(O)c(OC)c2)ccc1O ?
MC4R antagonist: 7; MC4R barr agon: -1; HDAC3 inhib: -9; UUG fidelity: -23; ALR H2O2 inh: 98*

Results for COc1cc(C2OCC3C(c4ccc(OC5OC(CO)C(O)C(O)C5O)c(OC)c4)OCC23)ccc1O (stereo unspecified) ?
MC4R antagonist: 6; MC4R barr agon: 2; HDAC3 inhib: -1; UUG fidelity: -10; ALR H2O2 inh: 95*; NALP1 inh: -8

What do the screens show for `Cc1noc(C)c1NC(=O)Nc1ccc2c(c1)C(=O)N([C@@H](C)CO)C[C@@H](C)[C@@H](CN(C)Cc1ccc(Cl)c(Cl)c1)OCCCC[C@@H](C)O2`?
UUG fidelity: 8

What do the screens show for `COC(=O)C[C@@H]1C[C@@H]2c3cc(NS(=O)(=O)c4ccc(OC)cc4)ccc3O[C@@H]2[C@H](CO)O1`?
UUG fidelity: -16

How did COc1cccc2cc(-c3ccnc(=S)[nH]3)oc12 do in these assays?
HDAC3 inhib: -1; ALR H2O2 inh: 99*; NALP1 inh: -13

What do the screens show for `CCC(=O)N(C)C[C@H]1Oc2cc(C#CC3(O)CCCC3)ccc2S(=O)(=O)N([C@H](C)CO)C[C@H]1C`?
UUG fidelity: 8

What do the screens show for `Cn1ncc([N+](=O)[O-])c1C(=O)Nc1ccccc1`?
MC4R antagonist: 4; MC4R barr agon: -1; HDAC3 inhib: 1; UUG fidelity: -18; NALP1 inh: -6

Results for COc1cccc(NC(=O)c2c([N+](=O)[O-])cnn2C)c1 ?
MC4R antagonist: 0; MC4R barr agon: -2; HDAC3 inhib: -3; UUG fidelity: -2; ALR H2O2 inh: 96*; NALP1 inh: 11

What do the screens show for `COc1ccc(CN=C(C)c2c(C(F)(F)F)[nH]n(-c3nc4ccccc4s3)c2=O)cc1`?
MC4R antagonist: 2; MC4R barr agon: -1; HDAC3 inhib: -2; UUG fidelity: -16; NALP1 inh: 5

How did COC(=O)CC1=NN(c2nc3ccccc3s2)C(=O)/C1=C/N(C)C do in these assays?
MC4R antagonist: 3; MC4R barr agon: -1; HDAC3 inhib: 3; ALR H2O2 inh: 96*; NALP1 inh: -5

What do the screens show for `CC(=O)c1c(CC(=O)O)[nH]n(-c2nc3ccccc3s2)c1=O`?
MC4R antagonist: 22; MC4R barr agon: -2; HDAC3 inhib: -4; UUG fidelity: -28; ALR H2O2 inh: 97*; NALP1 inh: 1

Results for COC(=O)Cc1[nH]n(-c2nc3ccccc3s2)c(=O)c1C(C)=O ?
MC4R antagonist: 7; MC4R barr agon: 2; HDAC3 inhib: 3; UUG fidelity: -2; ALR H2O2 inh: 98*; NALP1 inh: 2

The last 3 entries of the section before are carried over, then new ones follow.
How did COC(=O)CC1=NN(c2nc3ccccc3s2)C(=O)/C1=C/N(C)C do in these assays?
MC4R antagonist: 3; MC4R barr agon: -1; HDAC3 inhib: 3; ALR H2O2 inh: 96*; NALP1 inh: -5

What do the screens show for `CC(=O)c1c(CC(=O)O)[nH]n(-c2nc3ccccc3s2)c1=O`?
MC4R antagonist: 22; MC4R barr agon: -2; HDAC3 inhib: -4; UUG fidelity: -28; ALR H2O2 inh: 97*; NALP1 inh: 1

Results for COC(=O)Cc1[nH]n(-c2nc3ccccc3s2)c(=O)c1C(C)=O ?
MC4R antagonist: 7; MC4R barr agon: 2; HDAC3 inhib: 3; UUG fidelity: -2; ALR H2O2 inh: 98*; NALP1 inh: 2

Results for COC(=O)CCCc1nc2ccccc2s1 ?
MC4R antagonist: -3; MC4R barr agon: 0; HDAC3 inhib: -7; ALR H2O2 inh: -16; NALP1 inh: -6

Results for COc1ccccc1OCC(=O)Nc1cc(NC(=O)COc2ccccc2OC)cc(C(=O)O)c1 ?
MC4R antagonist: 7; MC4R barr agon: -1; HDAC3 inhib: -1; UUG fidelity: -12; ALR H2O2 inh: 98*; NALP1 inh: -2

What do the screens show for `O=C(COc1ccccc1Cl)Nc1cc(NC(=O)COc2ccccc2Cl)cc(C(=O)O)c1`?
MC4R antagonist: -2; MC4R barr agon: 0; HDAC3 inhib: 0; UUG fidelity: -12; ALR H2O2 inh: -1; NALP1 inh: 18

What do the screens show for `O=C(CN1CCCCC1)N1c2ccccc2CCc2ccccc21`?
MC4R antagonist: 2; MC4R barr agon: -1; HDAC3 inhib: 6; UUG fidelity: -15; ALR H2O2 inh: 13; NALP1 inh: 2

How did CC1CCN(CC(=O)N2c3ccccc3CCc3ccccc32)CC1 do in these assays?
MC4R antagonist: 3; MC4R barr agon: -2; HDAC3 inhib: 6; UUG fidelity: -27; ALR H2O2 inh: 84*; NALP1 inh: 5

What do the screens show for `CN(CCNC(=O)CN1CCN(Cc2ccccc2Cl)C1=O)Cc1ccccc1`?
MC4R antagonist: 3; MC4R barr agon: 1; HDAC3 inhib: -3; UUG fidelity: -8; ALR H2O2 inh: 2; NALP1 inh: 45*

How did COCC(=O)N1[C@H](C(=O)N2CCCCC2)[C@@H](CO)[C@@H]2Cn3c(ccc(C4=CCCC4)c3=O)[C@@H]21 do in these assays?
UUG fidelity: 22

Results for O=[N+]([O-])c1ccc(Nc2ccccc2O)c2nonc12 ?
MC4R antagonist: -1; MC4R barr agon: -2; HDAC3 inhib: 5; UUG fidelity: 25; ALR H2O2 inh: 99*; NALP1 inh: 2

Results for O=C(O)c1ccc(Nc2ccc([N+](=O)[O-])c3nonc23)cc1 ?
MC4R antagonist: -32; MC4R barr agon: -4; HDAC3 inhib: 4; UUG fidelity: 7; ALR H2O2 inh: 4; NALP1 inh: 3

What do the screens show for `OCc1csc(=Nc2ccccc2)n1-c1ccccc1`?
MC4R antagonist: 15; MC4R barr agon: 1; HDAC3 inhib: 3; UUG fidelity: -8; ALR H2O2 inh: 99*; NALP1 inh: 14

Results for CCCN(C)C[C@H]1OCCCC[C@H](C)Oc2ccc(NC(=O)c3ccccc3)cc2C(=O)N([C@@H](C)CO)C[C@H]1C ?
UUG fidelity: 0

Results for CCCC#Cc1cnc2c(c1)C(=O)N([C@@H](C)CO)C[C@@H](C)[C@H](CN(C)CCC)O2 ?
UUG fidelity: 8

What do the screens show for `Cc1cccc(C)c1NC(=O)CSc1ncnc2nc[nH]c12`?
MC4R antagonist: 13; MC4R barr agon: 1; HDAC3 inhib: -5; UUG fidelity: -23; ALR H2O2 inh: -2; NALP1 inh: 30

Results for O=C(CSc1ncnc2nc[nH]c12)c1ccc([N+](=O)[O-])cc1 ?
MC4R antagonist: 12; MC4R barr agon: -1; HDAC3 inhib: 8; ALR H2O2 inh: 93*; NALP1 inh: 26

Results for O=C(CSc1ncnc2nc[nH]c12)c1ccc(Cl)cc1 ?
MC4R antagonist: 13; MC4R barr agon: -1; HDAC3 inhib: 23; UUG fidelity: -6; ALR H2O2 inh: 87*; NALP1 inh: 26

What do the screens show for `O=C(CSc1ncnc2nc[nH]c12)c1ccccc1`?
MC4R antagonist: -3; MC4R barr agon: 0; HDAC3 inhib: 7; UUG fidelity: -25; ALR H2O2 inh: 2; NALP1 inh: 28

How did O=C(c1ccc(-c2cccc(C(F)(F)F)c2)o1)N1CCCC(C(F)(F)F)C1 (stereo unspecified) do in these assays?
MC4R antagonist: 7; MC4R barr agon: 0; HDAC3 inhib: 30*; UUG fidelity: -4; ALR H2O2 inh: -13

What do the screens show for `C[C@@H]1CN([C@H](C)CO)C(=O)c2cccc(NC(=O)C3CCOCC3)c2O[C@@H]1CN(C)Cc1ccc(Oc2ccccc2)cc1`?
UUG fidelity: 4
